This is an account of results in BindingDB's records for doi:10.1073/pnas.71.5.1725 (1974).

By UniProt entry, the sequences of proteins in these tests, tags left out.
UniProt P10980, whole entry: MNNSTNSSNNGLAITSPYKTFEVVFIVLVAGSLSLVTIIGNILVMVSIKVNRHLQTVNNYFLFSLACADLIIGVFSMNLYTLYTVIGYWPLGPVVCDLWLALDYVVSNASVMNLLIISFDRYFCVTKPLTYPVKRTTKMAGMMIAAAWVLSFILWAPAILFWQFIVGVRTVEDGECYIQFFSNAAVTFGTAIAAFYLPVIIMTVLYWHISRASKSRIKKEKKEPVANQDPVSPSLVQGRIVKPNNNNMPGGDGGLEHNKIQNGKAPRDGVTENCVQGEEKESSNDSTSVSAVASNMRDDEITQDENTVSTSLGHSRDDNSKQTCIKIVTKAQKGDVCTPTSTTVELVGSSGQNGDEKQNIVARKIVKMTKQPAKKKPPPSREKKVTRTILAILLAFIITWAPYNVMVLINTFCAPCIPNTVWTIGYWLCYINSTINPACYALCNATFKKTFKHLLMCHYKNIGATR

This assay addresses Muscarinic acetylcholine receptor M2 (Rattus norvegicus, UniProt P10980).

In turn, `CN1C2CC(OC(=O)C(CO)c3ccccc3)CC1C1OC12` (stereo unspecified) [3-hydroxy-2-phenyl-propionic acid 9-methyl-3-oxa-9-aza-tricyclo[3.3.1.0*2,4*]non-7-yl ester] gave a Ki of 0.8 nM.

By Ki is commonly meant the equilibrium dissociation constant of an inhibitor or competing ligand from its target.
